In the test the target is T1, TMPRSS2 (Homo sapiens, UniProt O15393).
T1 construct: expressed in transfected cells
In words: cell-based. Particulars: overexpressing cell system; read-out: IC50 against TMPRSS2 (converted).

Protein sequences, listed by entry. Tags and fused reporters are not part of them.
UniProt O15393, whole entry: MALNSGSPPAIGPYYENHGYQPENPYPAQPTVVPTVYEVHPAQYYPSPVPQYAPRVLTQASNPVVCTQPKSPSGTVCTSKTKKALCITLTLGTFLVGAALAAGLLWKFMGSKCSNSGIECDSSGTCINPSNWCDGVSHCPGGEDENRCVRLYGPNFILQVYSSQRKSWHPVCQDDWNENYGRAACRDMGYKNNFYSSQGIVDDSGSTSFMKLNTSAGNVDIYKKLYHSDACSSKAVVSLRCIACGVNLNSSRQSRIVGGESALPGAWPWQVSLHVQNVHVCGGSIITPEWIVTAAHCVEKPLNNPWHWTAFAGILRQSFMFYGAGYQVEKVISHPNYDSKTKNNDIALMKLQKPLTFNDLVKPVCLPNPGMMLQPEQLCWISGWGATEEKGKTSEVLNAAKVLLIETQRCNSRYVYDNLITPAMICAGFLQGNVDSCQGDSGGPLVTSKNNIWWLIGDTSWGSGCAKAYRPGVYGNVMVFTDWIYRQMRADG

One may read the IC50 as the midpoint of a concentration-inhibition curve. Consider `CCCC[C@H](NC(=O)[C@H](CC(C)C)NC(=O)[C@H](Cc1ccccc1)NC(=O)[C@@H](NC(=O)[C@H](Cc1ccccc1)NC(=O)[C@@H]1CCCN1C(=O)[C@H](CCCCN)NC(=O)[C@H](CC(N)=O)NC(=O)[C@H](Cc1ccccc1)NC(=O)[C@H](CCCCN)NC(=O)[C@@H](NC(C)=O)C(C)C)C(C)C)C(=O)N[C@H](C(=O)N[C@@H](CCC(=O)O)C(=O)N[C@@H](CCC(N)=O)C(=O)N[C@@H](CC(N)=O)C(=O)N[C@H](C(=O)N[C@@H](CCCCN)C(N)=O)[C@@H](C)O)[C@@H](C)CC` [SP163M, Ac-VKFNKPFVFL[Nle]IEQNTK-NH2], for which the IC50 was 534 nM.

(Values after US20250353898A1, “SERPIN PEPTIDE DERIVATIVES AND METHODS OF USING THE SAME” (priority 2022, published 2025).)
